Values quoted from earlier work in US7235142B2, “Non-toxic corrosion-protection rinses and seals based on cobalt” (University of Dayton, priority 2002, dated 2007).

Details: pH 7

Substance | Solubility in Water
Hafnium hydroxide | 0.00137 mol/L
Pr4N^+ nitrate | ~1 × 10^0^ mole/L
Cobalt (II) iodide | 10.8 mol/L
Et4N^+ nitrate | ~5 × 10^0^ mole/L
Cobalt (II) bromide | 3.05 × 10^0 mole/L
Ammonium periodate | 0.13 mol/L
Hexaammine cobalt (III) nitrate | 0.049 mol/L
Bu4N^+ nitrate | ~0.5 mol/L
